Test results from ChEMBL document CHEMBL2440066, “Acidic biphenyl derivatives: synthesis and biological activity of a new series of potent 5-HT(4) receptor antagonists” (Bioorg Med Chem, 2013).

The chains behind the UniProt entries cited, without tags or fusion partners. Where a name states a change or a piece, a line headed by the entry shows the natural chain unless it says otherwise.
UniProt Q62758: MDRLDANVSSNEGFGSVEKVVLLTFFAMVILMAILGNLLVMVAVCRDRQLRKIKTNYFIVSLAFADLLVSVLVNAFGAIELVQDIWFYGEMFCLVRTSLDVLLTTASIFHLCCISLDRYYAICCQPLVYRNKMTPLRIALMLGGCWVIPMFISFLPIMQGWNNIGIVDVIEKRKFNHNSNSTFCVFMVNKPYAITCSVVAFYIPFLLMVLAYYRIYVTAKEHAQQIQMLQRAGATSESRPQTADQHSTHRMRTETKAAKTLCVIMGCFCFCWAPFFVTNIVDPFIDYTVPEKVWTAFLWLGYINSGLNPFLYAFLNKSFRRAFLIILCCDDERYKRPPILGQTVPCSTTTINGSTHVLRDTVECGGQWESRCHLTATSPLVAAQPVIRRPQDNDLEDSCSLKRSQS

Biological target: 5-hydroxytryptamine receptor 4 (Rattus norvegicus) (UniProt Q62758)
Experiment: Antagonist activity at 5-HT4 receptor in rat carbachol-contracted esophagus muscularis mucosae assessed as inhibition of 5-HT-induced relaxation

COc1ccc(CCCN2CCC(CCC(=O)c3cc(Cl)c(N)c4c3OCCO4)CC2)cc1OC
pKb: 11.2
